How the values were obtained:
[1] = biological target: recombinant human LAG3(ECD)-his (Sino Biological, Cat #: 16498-H08H) (human) (UniProt P18627); assay: ELISA, coated human LAG3(ECD)-his
[2] = biological target: hLAG-3-hIg fusion protein (human LAG-3 extracellular domain fused to human Fc; Sino Biological, Cat #: 16498-H02H) (human) (UniProt P18627); assay: FACS blocking assay; antibody titrated against 10 µg/ml hLAG-3-hIg binding to MHC II on Daudi cells

Sequences of proteins named here, by UniProt entry; tags and fusion partners are left off. A change or cut given only in a name is not applied to a line headed by its entry. Residues count along the entry.
UniProt P18627, 23-450: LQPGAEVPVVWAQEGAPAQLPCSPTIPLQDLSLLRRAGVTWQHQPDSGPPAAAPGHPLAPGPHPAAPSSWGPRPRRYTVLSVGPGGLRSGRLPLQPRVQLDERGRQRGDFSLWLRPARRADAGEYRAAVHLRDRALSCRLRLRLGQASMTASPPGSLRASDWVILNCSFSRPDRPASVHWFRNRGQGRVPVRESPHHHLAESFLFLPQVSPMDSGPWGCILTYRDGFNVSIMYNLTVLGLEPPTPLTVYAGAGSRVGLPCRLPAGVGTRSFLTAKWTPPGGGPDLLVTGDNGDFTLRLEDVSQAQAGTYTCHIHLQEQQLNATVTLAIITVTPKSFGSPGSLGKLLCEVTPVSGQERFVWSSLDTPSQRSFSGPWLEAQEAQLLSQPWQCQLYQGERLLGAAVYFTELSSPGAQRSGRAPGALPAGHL

EC50 [1]: 1.23 nM
EC50 [2]: 13 nM
Substance: BMS-986016 (antibody)

From US10946092
